{"source": "patent US20250041292A1", "about": "“METHODS FOR TREATING PRIMARY IMMUNODEFICIENCY” (X4 Pharmaceuticals, Inc., priority 2021, published 2025)", "key": {"[1]": {"system": "total peripheral WBCs", "assay": "Analysis of mavorixafor effects on WBCs across multiple disease states", "conditions": "across all indications, alone or in combination with other drugs"}, "[2]": {"assay": "Tolerability in clinical studies (healthy volunteers and patients, as of May 2019)", "format": "in vivo, human", "conditions": "approximately 193 healthy volunteers and patients treated", "description": "As of May 2019, approximately 193 healthy volunteers and patients had been treated with mavorixafor in clinical studies (n=70 healthy volunteers, n=16 HIV, n=99 oncology, n=8 WHIM syndrome)."}}}
{"substance": "mavorixafor", "values": [{"measurement": "tolerability", "setting": "[1]", "result": "generally well tolerated"}, {"measurement": "tolerability", "setting": "[2]", "result": "generally well tolerated"}]}
